Reference: PubChem BioAssay AID588342 (National Center for Advancing Translational Sciences (NCATS), 2011)
Only a part is listed here, and it is no random draw. Results filed as inconclusive are left out. Some salts and complexes are drawn in separate pieces, as the source files them; their charges need not balance. The source made the active and inactive calls. Calls follow the shape of the dose curve; as a rule, active = well fitted inhibition curve with a large enough effect; inconclusive = small, poorly fitted or top-dose-only effect; inactive = flat fitted curve, though single readings scatter.

Chains of the proteins cited; added tags and fusions are not shown.
UniProt P08659, whole entry: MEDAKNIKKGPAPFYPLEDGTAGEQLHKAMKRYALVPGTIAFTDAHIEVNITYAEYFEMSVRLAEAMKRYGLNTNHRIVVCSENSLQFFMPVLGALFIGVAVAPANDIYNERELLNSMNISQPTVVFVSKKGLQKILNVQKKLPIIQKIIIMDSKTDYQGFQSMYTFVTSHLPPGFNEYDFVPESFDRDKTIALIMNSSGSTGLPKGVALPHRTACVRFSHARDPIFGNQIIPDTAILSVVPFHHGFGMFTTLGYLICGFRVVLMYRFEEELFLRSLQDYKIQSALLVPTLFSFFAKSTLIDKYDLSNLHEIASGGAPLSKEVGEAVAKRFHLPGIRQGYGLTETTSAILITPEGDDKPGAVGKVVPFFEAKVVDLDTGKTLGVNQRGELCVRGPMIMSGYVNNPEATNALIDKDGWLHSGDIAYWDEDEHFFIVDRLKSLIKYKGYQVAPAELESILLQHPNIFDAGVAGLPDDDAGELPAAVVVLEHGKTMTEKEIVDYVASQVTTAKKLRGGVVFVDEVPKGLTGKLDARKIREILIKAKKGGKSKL

What follows are molecules tested against Luciferin 4-monooxygenase (Photinus pyralis) (UniProt P08659) (assay: qHTS profiling assay for firefly luciferase inhibitor/activator using purifed enzyme and Km concentrations of substrates (counterscreen for miR-21 project)). Conditions: purified FLuc, luminescence inhibition; at 57.5 µM (top of the series).
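Also: plate controls were vehicle for no effect and reference inhibitor for full effect; nearly all actives have a fitted effect of over 55% in size.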

Structure (SMILES)	activity change, negative = inhibition
CCCN1CCC(Nc2cc(OC)cc(OC)c2)CC1	inactive: 0.976%
c1ccc(CN2CCC(Nc3ccccc3)CC2)cc1	inactive: -0.278%
N#Cc1ccc(C(=O)NCC2(N3CCCCC3)CCCCC2)cc1	inactive: 1.4%
O=C(NCC1(N2CCOCC2)CCCCC1)c1ccccc1[N+](=O)[O-]	inactive: -1.4%
O=C(NCC1(N2CCOCC2)CCCCC1)c1ccc([N+](=O)[O-])cc1	inactive: 0.154%
CC(C)(C)OC(=O)N1CCC(N(C(=O)c2ccccc2)c2ccc(Cl)cc2)CC1	inactive: -0.833%
CCOC(=O)C(CC)C1=NC(C)(C)Cc2ccccc21.O=[N+]([O-])c1cc([N+](=O)[O-])c(O)c([N+](=O)[O-])c1 (stereo not given)	inactive: 1.62%
O=[N+]([O-])c1cc([N+](=O)[O-])c(NCC2CCS(=O)(=O)C2)c([N+](=O)[O-])c1 (stereo not given)	inactive: -1.51%
CCCOc1cccc(C(=O)NCC2(N3CCOCC3)CCCCC2)c1	inactive: -7.47%
O=C(NCC1(N2CCCCC2)CCCCC1)c1cccc(C(F)(F)F)c1	inactive: 3.99%
COc1cc(C(=O)NCC2(N3CCCCC3)CCCCC2)ccc1OC(F)F	inactive: -0.161%
O=C(NCC1(N2CCOCC2)CCCCC1)c1cc(=O)[nH]c2ccccc12	inactive: -0.448%
CN1CCN(CCOC(=O)C(O)(c2ccccc2)c2ccccc2)CC1	inactive: -1.76%
CC(C)c1ccc(C(=O)NCC2(N3CCOCC3)CCCCC2)cc1	inactive: 1.88%
COc1ccc(NC2CCN(C(=O)OC(C)(C)C)CC2)cc1	inactive: -2.28%
O=C(NCC1(N2CCCCC2)CCCCC1)c1ccc(OC(F)F)cc1	inactive: 2.63%
N#CC1(Nc2ccccc2)CCN(CCc2ccccc2)CC1	inactive: 1.48%
CCN1CCC(Nc2ccc(Cl)cc2)CC1	inactive: -1.57%
CSc1ccc(C(=O)NCC2(N3CCOCC3)CCCCC2)cc1	inactive: 3.23%
CCOc1ccc(C(=O)NCC2(N3CCOCC3)CCCCC2)cc1	inactive: 5.03%
O=C(NCC1(N2CCCCC2)CCCCC1)c1cccc([N+](=O)[O-])c1	inactive: 4.79%
O=C(OC1CN2CCC1CC2)c1ccc([N+](=O)[O-])cc1 (stereo not given)	inactive: 5.16%
COc1ccc2c(c1O)-c1c(O)c(OC)cc3c1[C@H](C2)[N+](C)(C)CC3.O=[N+]([O-])c1cc([N+](=O)[O-])c([O-])c([N+](=O)[O-])c1[O-]	inactive: -9.86%
O=C(NCC1(N2CCCCC2)CCCCC1)c1cncc(Br)c1	inactive: -0.532%
O=C(NCC1(N2CCOCC2)CCCCC1)c1ccccc1Br	inactive: -7.88%
CCCOc1ccc(C(=O)NCC2(N(C)C)CCCCC2)cc1OC	inactive: -0.475%
CCCCOc1ccccc1C(=O)NCC1(N2CCOCC2)CCCCC1	inactive: -10.2%
O=[N+]([O-])c1cc([N+](=O)[O-])c(OC2CCCCC2O)c([N+](=O)[O-])c1 (stereo not given)	inactive: -0.658%

Structure (SMILES)	activity change, negative = inhibition
CN(C)c1cccc(C(=O)NCC2(N3CCCCC3)CCCCC2)c1	inactive: 0.0947%
COc1ccc(CN(CCCl)CCCl)cc1Cl	inactive: 4.19%
COc1cc(OC)c(C(=O)NCC2(N(C)C)CCCCC2)cc1OC	inactive: 0.16%
Cc1cc(C)cc(N(C(=O)c2ccccc2)C2CCN(C(=O)OC(C)(C)C)CC2)c1	inactive: -0.485%
O=C(NCC1(N2CCCCC2)CCCCC1)c1ccc(Cl)nc1	inactive: 1.46%
O=C(NCC1(N2CCOCC2)CCCCC1)c1cc2ccccc2o1	inactive: 2.18%
COc1ccc(Cl)cc1C(=O)NCC1(N2CCOCC2)CCCCC1	inactive: -0.86%
N#CC1(Nc2ccccc2)CCN(Cc2ccccc2)CC1	inactive: -0.594%
O=C(NCC1(N2CCCCC2)CCCCC1)c1ccc(Cl)s1	inactive: 2.6%
O=C(OC1CN2CCC1CC2)C1c2ccccc2Oc2ccccc21 (stereo not given)	inactive: 4.47%
CCOC(=O)N1CCC(Nc2ccc(OC)cc2)CC1	inactive: 3.31%
CC(C)(C)OC(=O)N1CCC(N(C(=O)c2ccccc2)c2ccc(F)cc2)CC1	inactive: -0.617%
COc1ccc(C(=O)NCC2(N3CCCCC3)CCCCC2)c(OC)c1OC	inactive: -0.454%
COc1ccc(C(=O)NCC2(N3CCCCC3)CCCCC2)cc1	inactive: -0.142%
O=C(NCC1(N2CCCCC2)CCCCC1)c1cccs1	inactive: -1.76%
O=C(NCC1(N2CCCCC2)CCCCC1)c1ccc(=O)[nH]c1	inactive: 0.361%
CSc1ccccc1C(=O)NCC1(N2CCCCC2)CCCCC1	inactive: 2.24%
Cc1ccc(OCC(C)C)c(CN(CCCl)CCCl)c1	inactive: -2.86%
CCOC(=O)N1CCC(Nc2cccc(C)c2)CC1	inactive: -1.04%
COc1cc(C(=O)NCC2(N(C)C)CCCCC2)ccc1OC(F)F	inactive: -1.85%
O=C(NCC1(N2CCOCC2)CCCCC1)c1ccc(Cl)cc1	inactive: -8.58%
CCOc1ccc(C)cc1CN(CCCl)CCCl	inactive: -1.73%
COc1ccccc1C(=O)NCC1(N2CCOCC2)CCCCC1	inactive: 6.26%
COc1ccc(NC2CCN(CCc3ccccc3)CC2)c(OC)c1	inactive: -0.498%
CCOC(=O)N1CCC(Nc2ccc(F)cc2)CC1	inactive: -1.29%
CCCCOc1ccc(C(=O)NCC2(N3CCOCC3)CCCCC2)cc1	inactive: -4.52%
O=C(NCC1(N2CCCCC2)CCCCC1)c1ccc(F)cc1	inactive: 3.67%
